Molecular target: Amine oxidase [flavin-containing] B (Homo sapiens, UniProt P27338)
Assay: Inhibition of human recombinant MAOB expressed in baculovirus-infected BTI insect cells after 1 hr by Cheng-Prusoff equation analysis
Outline: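 Recombinant human MAO-B (baculovirus/BTI insect cells), luminescent activity read-out; IC50 measured experimentally and converted to Ki via Cheng-Prusoff equation; reported as mean with 95% confidence intervals, n = 3.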

Amino acid sequences for entries named in this document (tags omitted).
UniProt P27338, whole entry: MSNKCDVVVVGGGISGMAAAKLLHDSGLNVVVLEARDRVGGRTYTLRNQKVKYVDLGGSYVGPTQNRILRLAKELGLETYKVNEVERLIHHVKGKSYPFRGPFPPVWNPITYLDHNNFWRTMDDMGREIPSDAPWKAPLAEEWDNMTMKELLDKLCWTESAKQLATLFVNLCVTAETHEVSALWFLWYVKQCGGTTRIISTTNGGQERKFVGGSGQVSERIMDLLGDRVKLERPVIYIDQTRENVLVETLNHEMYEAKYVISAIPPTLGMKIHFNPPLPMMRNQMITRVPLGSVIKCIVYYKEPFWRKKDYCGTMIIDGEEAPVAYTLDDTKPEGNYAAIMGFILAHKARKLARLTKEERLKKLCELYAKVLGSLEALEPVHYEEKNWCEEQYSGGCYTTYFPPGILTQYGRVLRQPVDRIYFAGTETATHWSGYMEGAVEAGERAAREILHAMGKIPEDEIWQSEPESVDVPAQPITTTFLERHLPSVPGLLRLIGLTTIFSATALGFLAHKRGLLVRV

## Cc1cc2c(nn1)-c1cc(OCCCC(F)(F)F)ccc1C2=O
  Ki: 280 nM

— ChEMBL document CHEMBL1914298, “Synthesis and inhibition study of monoamine oxidase, indoleamine 2,3-dioxygenase and tryptophan 2,3-dioxygenase by 3,8-substituted 5H-indeno[1,2-c]pyridazin-5-one derivatives” (Eur J Med Chem, 2011)
